{
  "source": "patent US11891655B2",
  "about": "“Probe for selectively characterizing enzymes involved in xenobiotic metabolism and method of making and using the same” (Battelle Memorial Institute, priority 2017, dated 2024)",
  "test_system": "GSTs (G site) in mouse liver cytosol",
  "details": "for EC50: read-out: effective concentration inhibiting GSH-ABP-G labeling of GSTs",
  "note": "Like-named read-outs stand apart in the source and are kept apart here.",
  "data": [
    {"smiles": "CCCCCCSC[C@H](NC(=O)CC[C@H](N)C(=O)O)C(=O)NCC(=O)O", "note": "[S-hexylglutathione]", "values": [
      {"measurement": "EC50", "setting": "to 10 μM probe, mouse liver cytosol, inhibitor pre-incubated 30 min", "result": 1770, "unit": "nM"}
    ]},
    {"smiles": "N[C@@H](CCC(=O)N[C@@H](CS)C(=O)NCC(=O)O)C(=O)O", "note": "[GSH, glutathione]", "values": [
      {"measurement": "inhibition of GSH-ABP-G labeling by competitor added in excess", "setting": "SDS-PAGE and LC-MS, mouse liver lysate", "result": "no significant inhibition"}
    ]},
    {"smiles": "C=C(CC)C(=O)c1ccc(OCC(=O)O)c(Cl)c1Cl", "note": "[ethacrynic acid]", "values": [
      {"measurement": "EC50", "result": 440, "unit": "nM"}
    ]}
  ]
}
